Molecules are shown by their SMILES. The list shows a part of the results, in another mix than the full data. Only a part of the results of these assays is listed, not drawn at random. Activity calls are given as the source filed them. No cut-off for these calls is given here.

This passage reports Potency results from ChEMBL document CHEMBL1201862, “PubChem BioAssay data set” (2004).

The target of this assay is T1, Thioredoxin reductase 1, cytoplasmic (Rattus norvegicus) (UniProt O89049).
T1 sequence (whole entry): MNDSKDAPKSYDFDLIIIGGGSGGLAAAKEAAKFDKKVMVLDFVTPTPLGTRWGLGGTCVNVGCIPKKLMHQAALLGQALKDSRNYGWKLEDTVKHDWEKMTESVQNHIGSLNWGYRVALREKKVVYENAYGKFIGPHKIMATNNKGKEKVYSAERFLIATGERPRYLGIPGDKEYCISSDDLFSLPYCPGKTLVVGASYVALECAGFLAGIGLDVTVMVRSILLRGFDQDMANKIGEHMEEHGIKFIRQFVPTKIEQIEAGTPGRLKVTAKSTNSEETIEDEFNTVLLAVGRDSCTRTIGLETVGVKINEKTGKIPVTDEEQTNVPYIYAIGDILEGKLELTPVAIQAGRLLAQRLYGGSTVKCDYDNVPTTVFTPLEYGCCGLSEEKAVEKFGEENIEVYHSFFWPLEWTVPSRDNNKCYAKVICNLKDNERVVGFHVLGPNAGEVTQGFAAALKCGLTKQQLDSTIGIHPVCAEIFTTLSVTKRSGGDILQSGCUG
Nature of the assay: qHTS Assay for Inhibitors of Mammalian Selenoprotein Thioredoxin Reductase 1 (TrxR1): qHTS. [Related pubchem assays (depositor defined):AID488771]. In kind it is functional. In general terms: In qHTS, concentration-response curves come from the screen itself.
As to `O=C(O)C(O)c1ccccc1` (stereo unspecified), the Potency entry is “inactive”.
